Source: PMC11217338, “Cannabidiol promotes intestinal cholesterol uptake mediated by Pregnane X receptor” (Frontiers in Endocrinology, 2024)

The chains behind the UniProt entries cited, without tags or fusion partners. Where a name states a change or a piece, a line headed by the entry shows the natural chain unless it says otherwise.
UniProt O75469: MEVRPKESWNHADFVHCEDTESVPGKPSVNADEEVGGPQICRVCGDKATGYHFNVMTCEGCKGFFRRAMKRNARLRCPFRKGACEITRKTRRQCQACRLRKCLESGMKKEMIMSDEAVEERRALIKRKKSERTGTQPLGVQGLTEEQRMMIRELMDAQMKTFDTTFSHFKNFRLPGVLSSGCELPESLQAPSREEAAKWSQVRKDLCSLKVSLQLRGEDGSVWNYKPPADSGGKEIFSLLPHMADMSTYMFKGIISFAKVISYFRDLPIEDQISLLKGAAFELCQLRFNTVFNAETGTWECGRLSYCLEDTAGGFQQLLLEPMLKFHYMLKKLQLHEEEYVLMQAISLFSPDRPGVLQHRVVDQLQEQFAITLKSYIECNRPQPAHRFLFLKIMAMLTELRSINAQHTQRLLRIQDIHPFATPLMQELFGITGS

Biological target: T1, human Pregnane X receptor (hPXR) (Homo sapiens, UniProt O75469)
T1 construct: gene NR1I2
Assay: CYP3A4-luciferase reporter transactivation in transfected HepG2 cells (also LS180, EC50 […]); GAL4-LBD panel; mammalian two-hybrid co-repressor dissociation; site-directed mutagenesis

C=C(C)[C@@H]1CCC(C)=C[C@H]1c1c(O)cc(CCCCC)cc1O [CBD, Cannabidiol]
EC50: 5.1 µM
